This passage reports Ki results from ChEMBL document CHEMBL1147156, “Structure-based design and synthesis of N(omega)-nitro-L-arginine-containing peptidomimetics as selective inhibitors of neuronal nitric oxide synthase. Displacement of the heme structural water” (J Med Chem, 2007).

In general, Ki refers to the equilibrium dissociation constant of an inhibitor or competing ligand from its target.

This test addresses T1, Nitric oxide synthase 3 (Bos taurus, UniProt P29473).
T1 sequence (P29473 whole entry): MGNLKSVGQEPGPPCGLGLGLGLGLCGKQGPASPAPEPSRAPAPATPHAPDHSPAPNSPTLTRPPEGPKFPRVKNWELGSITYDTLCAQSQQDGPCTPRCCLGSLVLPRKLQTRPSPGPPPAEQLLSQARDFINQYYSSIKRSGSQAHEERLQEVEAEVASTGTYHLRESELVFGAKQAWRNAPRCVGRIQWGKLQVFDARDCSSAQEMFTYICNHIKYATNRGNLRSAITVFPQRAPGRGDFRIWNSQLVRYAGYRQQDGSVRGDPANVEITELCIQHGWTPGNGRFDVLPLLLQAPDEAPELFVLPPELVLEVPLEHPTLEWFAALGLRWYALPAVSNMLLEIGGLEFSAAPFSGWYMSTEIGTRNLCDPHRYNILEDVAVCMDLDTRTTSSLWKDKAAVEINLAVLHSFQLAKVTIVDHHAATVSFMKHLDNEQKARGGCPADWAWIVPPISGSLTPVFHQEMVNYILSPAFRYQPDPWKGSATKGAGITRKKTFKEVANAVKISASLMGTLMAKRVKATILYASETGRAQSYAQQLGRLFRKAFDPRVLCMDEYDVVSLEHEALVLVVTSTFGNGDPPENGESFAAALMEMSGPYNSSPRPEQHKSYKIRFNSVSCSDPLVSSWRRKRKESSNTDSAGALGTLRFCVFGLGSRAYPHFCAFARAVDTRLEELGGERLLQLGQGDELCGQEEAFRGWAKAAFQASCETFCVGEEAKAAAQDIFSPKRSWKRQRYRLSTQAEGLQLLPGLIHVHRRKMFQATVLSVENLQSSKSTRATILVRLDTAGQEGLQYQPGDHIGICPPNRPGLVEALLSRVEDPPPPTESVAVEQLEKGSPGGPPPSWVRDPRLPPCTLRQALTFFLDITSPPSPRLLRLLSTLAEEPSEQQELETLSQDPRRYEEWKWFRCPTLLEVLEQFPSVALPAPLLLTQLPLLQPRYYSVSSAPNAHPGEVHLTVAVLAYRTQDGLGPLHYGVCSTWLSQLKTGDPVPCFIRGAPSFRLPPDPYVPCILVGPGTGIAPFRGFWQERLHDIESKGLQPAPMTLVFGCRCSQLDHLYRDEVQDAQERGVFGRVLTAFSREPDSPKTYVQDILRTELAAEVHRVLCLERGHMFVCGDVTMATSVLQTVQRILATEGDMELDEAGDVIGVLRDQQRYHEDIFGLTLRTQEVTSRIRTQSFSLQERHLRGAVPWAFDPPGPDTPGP
The test is described as follows: Inhibition of bovine recombinant endothelial NOS by hemoglobin capture assay.

Consider `N=C(NCCC[C@H](N)C(=O)O)N[N+](=O)[O-]` [NITROARGININE], for which the inhibitory constant (Ki) stood at 720 nM.
